The list shows a part of the results, in another mix than the full data. Some salts or complexes appear as unconnected parts, following the source record. Calls of active or inactive are those of the source. Calls come from the whole dose curve; as a rule, active = well fitted inhibition curve with a large enough effect in the polarisation, with a control signal flat (not every such curve was filed as active); inconclusive = small, poorly fitted or top-dose-only effect, or effect the other way, or a change in a side signal; inactive = no such curve, though single readings can be large or run the other way; the % refers to the polarisation.
Target: Histone-lysine N-methyltransferase 2A (Homo sapiens) (UniProt Q03164)
Test: qHTS Fluorescence Polarization Assay for Inhibitors of MLL CXXC domain - DNA interaction
Settings: MLL-CXXC / FITC-HOXA9 DNA fluorescence polarization; at 115 µM (top of the series)

Amino acid sequences for entries named in this document (tags omitted).
UniProt Q03164, whole entry: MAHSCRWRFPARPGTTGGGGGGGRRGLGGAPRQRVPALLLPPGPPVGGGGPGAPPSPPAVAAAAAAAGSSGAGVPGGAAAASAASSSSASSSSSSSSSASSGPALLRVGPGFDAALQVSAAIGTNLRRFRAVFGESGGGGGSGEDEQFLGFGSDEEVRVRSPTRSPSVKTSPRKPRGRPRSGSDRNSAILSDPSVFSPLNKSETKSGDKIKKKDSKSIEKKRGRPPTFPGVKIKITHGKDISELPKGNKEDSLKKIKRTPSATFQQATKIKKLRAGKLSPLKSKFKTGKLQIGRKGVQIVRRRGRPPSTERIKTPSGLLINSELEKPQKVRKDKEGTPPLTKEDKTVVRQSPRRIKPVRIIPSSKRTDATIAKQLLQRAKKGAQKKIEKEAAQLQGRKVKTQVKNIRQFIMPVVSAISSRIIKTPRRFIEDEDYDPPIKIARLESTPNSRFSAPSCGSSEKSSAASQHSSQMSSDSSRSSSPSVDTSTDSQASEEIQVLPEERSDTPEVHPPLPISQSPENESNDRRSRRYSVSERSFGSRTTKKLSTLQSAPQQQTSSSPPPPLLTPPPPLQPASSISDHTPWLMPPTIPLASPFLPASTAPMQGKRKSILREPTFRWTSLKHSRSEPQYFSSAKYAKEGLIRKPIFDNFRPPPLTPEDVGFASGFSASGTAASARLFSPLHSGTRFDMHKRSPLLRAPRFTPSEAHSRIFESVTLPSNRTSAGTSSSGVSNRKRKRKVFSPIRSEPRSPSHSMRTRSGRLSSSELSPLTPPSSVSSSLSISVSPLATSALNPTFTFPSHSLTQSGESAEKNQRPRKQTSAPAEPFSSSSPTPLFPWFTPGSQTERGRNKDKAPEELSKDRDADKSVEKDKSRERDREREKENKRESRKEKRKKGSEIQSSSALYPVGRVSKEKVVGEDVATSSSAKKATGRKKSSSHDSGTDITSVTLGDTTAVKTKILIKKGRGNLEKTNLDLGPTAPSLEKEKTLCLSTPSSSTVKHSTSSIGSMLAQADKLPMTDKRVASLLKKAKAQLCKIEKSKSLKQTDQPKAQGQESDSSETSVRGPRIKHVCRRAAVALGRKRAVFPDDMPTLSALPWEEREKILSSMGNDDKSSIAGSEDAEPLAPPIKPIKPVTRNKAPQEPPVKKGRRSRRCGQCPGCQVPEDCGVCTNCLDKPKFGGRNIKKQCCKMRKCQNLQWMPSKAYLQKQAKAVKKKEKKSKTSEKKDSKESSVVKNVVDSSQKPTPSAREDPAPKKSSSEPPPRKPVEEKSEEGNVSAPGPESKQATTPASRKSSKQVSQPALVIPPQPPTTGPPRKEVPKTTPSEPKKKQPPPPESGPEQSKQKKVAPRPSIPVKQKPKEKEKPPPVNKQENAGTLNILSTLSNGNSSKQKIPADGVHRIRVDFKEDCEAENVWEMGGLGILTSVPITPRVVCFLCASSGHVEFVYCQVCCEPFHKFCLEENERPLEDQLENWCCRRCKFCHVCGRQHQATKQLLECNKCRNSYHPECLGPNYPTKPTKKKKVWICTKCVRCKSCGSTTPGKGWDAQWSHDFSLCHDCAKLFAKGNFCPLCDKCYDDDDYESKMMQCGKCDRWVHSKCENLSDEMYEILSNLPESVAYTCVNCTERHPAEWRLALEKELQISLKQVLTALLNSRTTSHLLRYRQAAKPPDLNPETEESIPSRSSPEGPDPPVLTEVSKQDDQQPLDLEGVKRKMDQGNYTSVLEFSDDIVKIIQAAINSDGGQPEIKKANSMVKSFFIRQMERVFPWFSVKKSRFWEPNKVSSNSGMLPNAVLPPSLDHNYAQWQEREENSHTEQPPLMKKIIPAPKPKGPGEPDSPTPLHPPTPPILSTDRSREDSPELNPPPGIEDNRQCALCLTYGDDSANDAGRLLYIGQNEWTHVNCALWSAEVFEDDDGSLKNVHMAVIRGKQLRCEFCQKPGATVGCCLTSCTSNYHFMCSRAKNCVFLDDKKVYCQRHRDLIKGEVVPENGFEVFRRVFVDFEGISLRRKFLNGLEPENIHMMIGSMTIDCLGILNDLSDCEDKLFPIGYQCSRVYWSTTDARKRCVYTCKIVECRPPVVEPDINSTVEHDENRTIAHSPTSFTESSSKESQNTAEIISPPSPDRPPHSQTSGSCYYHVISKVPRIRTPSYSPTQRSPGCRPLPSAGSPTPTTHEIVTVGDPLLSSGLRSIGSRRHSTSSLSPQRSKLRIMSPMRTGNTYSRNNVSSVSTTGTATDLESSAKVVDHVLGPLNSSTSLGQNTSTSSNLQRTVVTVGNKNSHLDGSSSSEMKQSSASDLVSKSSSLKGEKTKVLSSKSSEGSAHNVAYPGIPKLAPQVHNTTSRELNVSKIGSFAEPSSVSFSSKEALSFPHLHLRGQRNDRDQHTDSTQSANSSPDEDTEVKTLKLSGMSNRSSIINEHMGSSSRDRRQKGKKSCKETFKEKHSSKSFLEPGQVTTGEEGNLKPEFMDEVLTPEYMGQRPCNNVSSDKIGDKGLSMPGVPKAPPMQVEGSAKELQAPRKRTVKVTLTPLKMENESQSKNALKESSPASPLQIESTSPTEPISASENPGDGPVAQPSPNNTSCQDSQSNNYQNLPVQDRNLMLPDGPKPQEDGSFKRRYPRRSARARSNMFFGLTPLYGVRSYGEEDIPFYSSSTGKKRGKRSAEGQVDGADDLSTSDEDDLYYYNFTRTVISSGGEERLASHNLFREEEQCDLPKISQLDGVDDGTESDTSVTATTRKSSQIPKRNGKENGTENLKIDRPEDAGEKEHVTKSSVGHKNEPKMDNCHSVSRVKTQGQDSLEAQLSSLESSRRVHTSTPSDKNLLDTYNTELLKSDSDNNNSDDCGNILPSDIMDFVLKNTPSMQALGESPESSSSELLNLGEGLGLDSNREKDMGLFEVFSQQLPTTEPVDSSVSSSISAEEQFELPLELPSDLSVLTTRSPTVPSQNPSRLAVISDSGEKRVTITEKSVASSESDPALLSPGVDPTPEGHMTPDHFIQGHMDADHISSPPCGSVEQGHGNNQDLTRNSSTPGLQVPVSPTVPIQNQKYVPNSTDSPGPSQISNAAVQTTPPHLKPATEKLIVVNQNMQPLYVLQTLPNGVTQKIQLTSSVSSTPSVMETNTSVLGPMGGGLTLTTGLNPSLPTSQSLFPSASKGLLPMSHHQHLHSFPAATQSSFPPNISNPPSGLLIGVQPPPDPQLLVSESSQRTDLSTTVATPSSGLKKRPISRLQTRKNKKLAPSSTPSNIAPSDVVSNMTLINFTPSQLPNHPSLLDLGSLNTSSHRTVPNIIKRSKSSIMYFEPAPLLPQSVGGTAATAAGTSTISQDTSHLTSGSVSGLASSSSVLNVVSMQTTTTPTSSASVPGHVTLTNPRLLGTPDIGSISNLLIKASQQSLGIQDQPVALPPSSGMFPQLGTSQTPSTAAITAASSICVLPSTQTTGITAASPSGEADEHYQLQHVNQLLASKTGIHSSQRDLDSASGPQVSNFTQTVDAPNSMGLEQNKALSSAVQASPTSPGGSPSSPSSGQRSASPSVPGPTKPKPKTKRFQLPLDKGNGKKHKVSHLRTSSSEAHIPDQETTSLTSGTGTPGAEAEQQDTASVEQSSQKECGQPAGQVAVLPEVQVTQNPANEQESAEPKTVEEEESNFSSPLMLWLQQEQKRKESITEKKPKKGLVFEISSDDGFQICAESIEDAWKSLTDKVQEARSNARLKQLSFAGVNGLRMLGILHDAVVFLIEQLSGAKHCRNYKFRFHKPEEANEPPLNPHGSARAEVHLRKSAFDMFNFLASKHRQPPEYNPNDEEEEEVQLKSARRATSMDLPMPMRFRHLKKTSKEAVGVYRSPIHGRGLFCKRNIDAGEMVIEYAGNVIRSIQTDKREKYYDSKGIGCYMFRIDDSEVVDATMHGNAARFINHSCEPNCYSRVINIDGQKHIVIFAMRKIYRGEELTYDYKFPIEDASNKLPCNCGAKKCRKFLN

Row | Compound | activity change, negative = inhibition
1 | O=C(O)C1(Nc2ccccc2)CCN(Cc2ccccc2)CC1 | inactive: 13.4%
2 | CC(C)(C)OC(=O)N1CCC(Nc2ccccc2)CC1 | inactive: -6.23%
3 | CCCOc1ccc(C(=O)NCC2(N(C)C)CCCCC2)cc1 | inactive: 6.36%
4 | CN1CCC(Nc2ccc(F)c(Cl)c2)CC1 | inactive: -2.7%
5 | CCOc1ncccc1C(=O)NCC1(N2CCOCC2)CCCCC1 | inactive: -1.1%
6 | CN1CCC(Nc2ccc(Cl)cc2)CC1 | inactive: -1.25%
7 | CCCOc1ccc(C)cc1CN(CCCl)CCCl | inactive: 5.74%
8 | COc1cc(OC)cc(C(=O)NCC2(N3CCOCC3)CCCCC2)c1 | inactive: 5.01%
9 | CCC(CO)(C(=O)OC1CN2CCC1CC2)c1ccccc1 (centres undefined) | inactive: 6.8%
10 | Fc1ccccc1NC1CCN(Cc2ccccc2)CC1 | inactive: -1.62%
11 | COc1cc(OC)cc(C(=O)NCC2(N3CCCCC3)CCCCC2)c1 | inactive: 3.17%
12 | CN(C)c1ccc(C(=O)NCC2(N3CCCCC3)CCCCC2)cc1 | inactive: -2.96%
13 | CCN1CCC(Nc2cccc(F)c2)CC1 | inactive: -4.66%
14 | CCOC(=O)C(CC)C1=NC(C)(C)Cc2ccccc21.O=[N+]([O-])c1cc([N+](=O)[O-])c(O)c([N+](=O)[O-])c1 (centres undefined) | inactive: -1.2%
15 | N#Cc1ccc(C(=O)NCC2(N3CCCCC3)CCCCC2)cc1 | inactive: 4.27%
16 | CC(C)(C)OC(=O)N1CCC(N(C(=O)c2ccccc2)c2ccc(Cl)cc2)CC1 | inactive: -2.22%
17 | CN(C)C1(CNC(=O)c2cccc(C#N)c2)CCCCC1 | inactive: 10.7%
18 | CCCN1CCC(Nc2cc(OC)cc(OC)c2)CC1 | inactive: -0.508%
19 | c1ccc(CN2CCC(Nc3ccccc3)CC2)cc1 | inactive: 13.4%
20 | COc1ccc(C(=O)NCC2(N3CCOCC3)CCCCC2)cc1OC | inactive: 4.07%

Row | Compound | activity change, negative = inhibition
21 | O=C(O)c1cccc(Nc2c([N+](=O)[O-])cc([N+](=O)[O-])cc2[N+](=O)[O-])c1 | inactive: -32.5%
22 | O=C(OC1CN2CCC1CC2)C1c2ccccc2C=Cc2ccccc21 (centres undefined) | inactive: 2.24%
23 | CCOC(=O)N1CCC(Nc2ccc(C)cc2)CC1 | inactive: 10.6%
24 | N/C(=N\O)c1c(N)no[n+]1[O-] | inactive: 4.48%
25 | COc1cc(OC)c(C(=O)NCC2(N(C)C)CCCCC2)cc1OC | inactive: -2.31%
26 | CC(C)c1ccc(NC2CCN(C(=O)OC(C)(C)C)CC2)cc1 | inactive: 7.21%
27 | O=[N+]([O-])c1cc([N+](=O)[O-])c(OC2CCCCC2O)c([N+](=O)[O-])c1 (centres undefined) | inactive: -8.61%
28 | CN(C)c1cccc(C(=O)NCC2(N3CCCCC3)CCCCC2)c1 | inactive: -4.11%
29 | COc1ccc(CN(CCCl)CCCl)cc1Cl | inactive: 22.2%
30 | CCCOc1ccc(C(=O)NCC2(N(C)C)CCCCC2)cc1OC | inactive: -12.9%
31 | O=C(OC1CN2CCC1CC2)c1ccc([N+](=O)[O-])cc1 (centres undefined) | inactive: 2.98%
32 | COc1ccc2c(c1O)-c1c(O)c(OC)cc3c1[C@H](C2)[N+](C)(C)CC3.O=[N+]([O-])c1cc([N+](=O)[O-])c([O-])c([N+](=O)[O-])c1[O-] | inactive: 0.319%
33 | N#CC1(Nc2ccccc2)CCN(CCc2ccccc2)CC1 | inactive: 3.94%
34 | CCN1CCC(Nc2ccc(Cl)cc2)CC1 | inactive: -4.11%
35 | O=C(NCC1(N2CCCCC2)CCCCC1)c1cccc([N+](=O)[O-])c1 | inactive: 3.17%
36 | O=C(NCC1(N2CCCCC2)CCCCC1)c1ccc(OC(F)F)cc1 | inactive: 1.23%
37 | COc1cc(C(=O)NCC2(N3CCCCC3)CCCCC2)ccc1OC(F)F | inactive: 2.97%
38 | O=C(NCC1(N2CCOCC2)CCCCC1)c1cc(=O)[nH]c2ccccc12 | inactive: -3.02%
39 | CN1CCN(CCOC(=O)C(O)(c2ccccc2)c2ccccc2)CC1 | inactive: 7.58%
40 | COc1ccc(NC2CCN(C(=O)OC(C)(C)C)CC2)cc1 | inactive: 4.36%

Row | Compound | activity change, negative = inhibition
41 | O=[N+]([O-])c1cc([N+](=O)[O-])c(NCC2CCS(=O)(=O)C2)c([N+](=O)[O-])c1 (centres undefined) | inactive: -2.45%
42 | O=C(NCC1(N2CCCCC2)CCCCC1)c1cccc(C(F)(F)F)c1 | inactive: 1.35%
43 | COc1ccc(NC2CCN(CCc3ccccc3)CC2)c(OC)c1 | inactive: -0.243%
44 | CCOC(=O)N1CCC(Nc2ccc(F)cc2)CC1 | inactive: 5.88%
45 | O=C(NCC1(N2CCCCC2)CCCCC1)c1ccc(F)cc1 | inactive: 6.89%
46 | CCOc1ccc(C)cc1CN(CCCl)CCCl | inactive: -6.99%
47 | Cc1ccc(OCC(C)C)c(CN(CCCl)CCCl)c1 | inactive: -0.0695%
48 | COc1cc(C(=O)NCC2(N(C)C)CCCCC2)ccc1OC(F)F | inactive: 8.66%
49 | CCOC(=O)N1CCC(Nc2cccc(C)c2)CC1 | inactive: 16.7%
50 | CSc1ccccc1C(=O)NCC1(N2CCCCC2)CCCCC1 | inactive: 8.15%
51 | CC(C)(C)OC(=O)N1CCC(N(C(=O)c2ccccc2)c2ccc(F)cc2)CC1 | inactive: -3.44%
52 | COc1ccc(C(=O)NCC2(N3CCCCC3)CCCCC2)c(OC)c1OC | inactive: 1.25%
53 | COc1ccc(C(=O)NCC2(N3CCCCC3)CCCCC2)cc1 | inactive: 3.21%
54 | O=C(NCC1(N2CCCCC2)CCCCC1)c1ccc(=O)[nH]c1 | inactive: 4%
55 | O=C(OC1CN2CCC1CC2)C1c2ccccc2Oc2ccccc21 (centres undefined) | inactive: 7.96%
56 | N#CC1(Nc2ccccc2)CCN(Cc2ccccc2)CC1 | inactive: -2.18%
57 | CCOC(=O)N1CCC(Nc2ccc(OC)cc2)CC1 | inactive: -15.5%
58 | Cc1cc(C)cc(N(C(=O)c2ccccc2)C2CCN(C(=O)OC(C)(C)C)CC2)c1 | inactive: 0.858%
59 | O=C(NCC1(N2CCOCC2)CCCCC1)c1cc2ccccc2o1 | inactive: 3.93%

Reference: PubChem BioAssay AID2662 (National Center for Advancing Translational Sciences (NCATS), 2010)
